Results reported in patent US20070036775A1, “Method of modulating or examining Ku70 levels in cells” (priority 2001, published 2007).

Tests used:
Caspase = test: Bax-induced Caspase activation (DEVD-afc cleavage) in HEK293T cells; assay type: cell-based; settings: one day following transfection
Protocol: FIG. 2A: Ku70 suppressed STS-induced apoptosis in Hela cells. Hela cells (10^6 cells) were transfected with 0.5 μg pEGFP and 1.0 μg pCMV-2B (Vector), pCMV-2B-Ku70 (Ku70 wt), pCMV-2B-Ku701-535 (Ku701-535), or pCMV-2B-Ku70536-609 (Ku70536-609). One day following transfection, cells were treated with 200 nM STS and the number of apoptotic cells was counted as described in FIG. 1 after 24 hours of STS treatment. FIG. 2B: Ku70 suppressed UVC-induced apoptosis. HEK293T cells (10^6 cells) were transfected with 0.5 μg PEGFP and 1.0 μg pCMV-2B (Vector), pCMV-2B-Ku70 wt (Ku70 wt), or pCMV-2B-Ku70536-609 (Ku70536-609). One day following transfection, cells were exposed to 200 J/m^2 of UVC-irradiation. After 24 hours, apoptotic cells were counted as described in FIG. 1. FIG. 2C: Ku70 suppressed Bax-induced Caspase activation. […] Caspase activity was measured one day following transfection as described in Experimental Procedure. […] Caspase activity was assessed as described in Experimental Procedure. […] Cytochrome c released from mitochondria into cytosol was analyzed by subcellular fractionation followed by Western blot analysis of Cytochrome c (Cyt c) as well as mitochondrial FoF1-ATP-synthase subunit F1α (F1α) as described in Experimental Procedure. […]

Hela cells = test: STS-induced apoptosis in Hela cells, Hoechst staining of apoptotic nuclei; assay type: cell-based, human; settings: HeLa cells transfected with Ku70 construct, 200 nM STS, 24 hours

Ku70: human full length Ku70, 70 kDa subunit of Ku-complex (609 amino acids), expressed from pCMV-2B plasmid
effect on Bax-induced Caspase activation (Caspase): suppressed | effect on STS-induced apoptosis (Hela cells): attenuated Staurosporine (STS) induced apoptosis
